{"source": "patent US20220002458A1", "about": "“ACRYLATE COPOLYMERS FOR GALENIC APPLICATIONS” (JOHANNES GUTENBERG-UNIVERSITÄT MAINZ, priority 2018, published 2022)", "data": [{"substance": "Poly(methacrylic acid-co-methyl methacrylate) 1:1 [Eudragit ® L 100]", "values": [{"measurement": "Solubility pH 2", "setting": "pH 2", "value": "−"}, {"measurement": "Solubility pH 3", "setting": "pH 3", "value": "−"}, {"measurement": "Solubility pH 4", "setting": "pH 4", "value": "−"}, {"measurement": "Solubility pH 5", "setting": "pH 5", "value": "−"}, {"measurement": "Solubility pH 6", "setting": "pH 6", "value": "+"}, {"measurement": "Solubility pH 7", "setting": "pH 7", "value": "+"}]}]}
